# Yeast mating assay B: variants of the scFv Ab-14

Target peptide (SARS-CoV-2 spike, HR2 region): PDVDLGDISGINAS

Parent scFv Ab-14: VH joined to VL by a (GGGGS)3 linker. Changes lie in the heavy chain CDRs alone.
VH: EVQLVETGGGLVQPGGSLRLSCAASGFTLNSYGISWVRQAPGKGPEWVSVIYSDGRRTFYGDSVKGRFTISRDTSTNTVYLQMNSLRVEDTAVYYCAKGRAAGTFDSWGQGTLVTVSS
VL: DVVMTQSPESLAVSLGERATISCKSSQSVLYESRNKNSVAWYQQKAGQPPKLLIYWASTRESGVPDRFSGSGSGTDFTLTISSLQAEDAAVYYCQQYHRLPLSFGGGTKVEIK

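Phage display of a naive human antibody library on the peptide gave the parent. This is the validation round: designs drawn from the data on random variants, tested in the same kind of assay. Group labels follow the data file (Ctrl: baseline library sampled from a position-specific scoring matrix, with some repeated check sequences; GPLM: also part of the Gaussian process libraries; HC: hill climbing; Gen: genetic algorithm; a sequence that several methods proposed may carry one label only). Affinity was read by AlphaSeq, a pooled yeast mating assay with surface-displayed partners. Binding brings cells together so that they mate, and sequencing counts the barcode pairs among the diploids. Read counts were normalised to the haploid input and turned into Kd by a linear fit to BCL2-family pairs of known affinity, for each replicate. Mating was done six times.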

Changes read parent residue, position, new residue, counted from the first residue of the VH shown. Numbers give log10(Kd / nM), so 0 is 1 nM and 3 is 1 µM. Smaller is tighter. Where no diploid with the target was found in that replicate, the entry reads "n.d.": below detection, most likely a poor binder, though not proof of it. Some sequences occur more than once in the pool; their replicates are listed entry by entry, parted by semicolons.

changes,group,log10 Kd (nM) by replicate,signal with controls
T28N+F59Q,Ctrl,1.62 / 2.11 / n.d. / 1.92 / 1.41 / 2.76,0 of 18
S31Q+S53A+G61E+S107D,Ctrl,0.06 / -0.12 / 0.39 / -0.17 / -0.20 / 0.54,0 of 18
S53A+G61I+G99R+D106P,Ctrl,n.d. / n.d. / n.d. / n.d. / n.d. / n.d.,0 of 18
G61T+R100E+F105K,Ctrl,n.d. / n.d. / n.d. / n.d. / n.d. / n.d.,0 of 18
A102E+G103L,Ctrl,n.d. / n.d. / n.d. / n.d. / n.d. / n.d.,0 of 18
F27D+S53A+G61Y+S107F,Ctrl,n.d. / n.d. / n.d. / n.d. / n.d. / n.d.,0 of 18
S63E+G103I,Ctrl,n.d. / n.d. / n.d. / n.d. / n.d. / n.d.,0 of 18
T28H+S31E+G61T+R100V,Ctrl,0.62 / 0.86 / 0.56 / -0.01 / 0.75 / 0.67,0 of 18
F59H+A101N,Ctrl,n.d. / n.d. / n.d. / 3.11 / n.d. / n.d.,1 of 18 (2.56)
S31Q+F59Q+G61S,Ctrl+GPLM_HC,2.25 / 1.77 / 1.31 / 1.61 / 1.00 / 1.40; 1.13 / 0.70 / 1.22 / 0.73 / 1.15 / 0.77,0 of 36
F59A+G61H+A101L,Ctrl,1.49 / 0.84 / 0.67 / 0.59 / 0.81 / 1.08,1 of 18 (4.04)
G61Q+R100T+A101G+T104N+F105N,Ctrl,n.d. / n.d. / n.d. / n.d. / n.d. / n.d.,0 of 18
N30M+K65R+S107P,Ctrl,n.d. / n.d. / n.d. / n.d. / n.d. / n.d.,0 of 18
F59Q+G61S+S63Q+V64S,Ctrl,n.d. / 1.65 / n.d. / n.d. / n.d. / n.d.,1 of 18 (2.12)
N30E+S31E+K65L+D106L,Ctrl,n.d. / n.d. / n.d. / n.d. / n.d. / n.d.,0 of 18
N30Q+G99H+S107E,Ctrl,n.d. / n.d. / n.d. / n.d. / n.d. / n.d.,0 of 18
T28D+F59A+D62P+S63N+R100N,Ctrl,0.18 / 0.03 / 0.02 / 0.25 / 0.48 / 0.26,0 of 18
S63T+T104R+D106R,Ctrl,n.d. / n.d. / n.d. / n.d. / n.d. / n.d.,0 of 18
T28D+G103V+S107K,Ctrl,n.d. / n.d. / n.d. / n.d. / n.d. / n.d.,0 of 18
I34G+G61I+R100D+S107W,Ctrl,n.d. / n.d. / n.d. / n.d. / n.d. / n.d.,0 of 18
T28H+N30Q+G61I+A101S+S107L,Ctrl,n.d. / n.d. / n.d. / n.d. / n.d. / n.d.,0 of 18
N30S+R56K+S63D+D106P,Ctrl,n.d. / n.d. / n.d. / n.d. / n.d. / n.d.,0 of 18
R56I+A101E+G103D,Ctrl,n.d. / n.d. / n.d. / n.d. / n.d. / n.d.,0 of 18
N30E+A101L+F105Y,Ctrl,n.d. / n.d. / n.d. / n.d. / n.d. / n.d.,0 of 18
T28D+G61A,Ctrl+GPLM_Gen,0.11 / 0.11 / 0.05 / 0.01 / 0.32 / -0.16; 1.59 / 1.00 / 0.84 / 0.54 / 0.52 / 0.56,1 of 36 (2.26)
F27E+R100T+S107L,Ctrl,n.d. / n.d. / n.d. / n.d. / n.d. / n.d.,0 of 18
T28H+I34W+A101C+G103L,Ctrl,n.d. / n.d. / n.d. / n.d. / n.d. / n.d.,0 of 18
F27E+R56K+G103K,Ctrl,n.d. / n.d. / n.d. / n.d. / n.d. / n.d.,0 of 18
F27V+T28S+G61D,Ctrl,n.d. / n.d. / n.d. / 2.04 / n.d. / n.d.,0 of 18
G61S+S63A+D106H,Ctrl,n.d. / n.d. / n.d. / n.d. / n.d. / n.d.,0 of 18
R56M+G61A+V64F+G99W,Ctrl,n.d. / n.d. / n.d. / n.d. / n.d. / n.d.,0 of 18

Again, the first 5 entries without any signal:

changes	group	log10 Kd (nM) by replicate	signal with controls
S53A+G61I+G99R+D106P	Ctrl	n.d. / n.d. / n.d. / n.d. / n.d. / n.d.	0 of 18
G61T+R100E+F105K	Ctrl	n.d. / n.d. / n.d. / n.d. / n.d. / n.d.	0 of 18
A102E+G103L	Ctrl	n.d. / n.d. / n.d. / n.d. / n.d. / n.d.	0 of 18
F27D+S53A+G61Y+S107F	Ctrl	n.d. / n.d. / n.d. / n.d. / n.d. / n.d.	0 of 18
S63E+G103I	Ctrl	n.d. / n.d. / n.d. / n.d. / n.d. / n.d.	0 of 18

As a blank, each scFv also met three strains without target: over all heavy chain designs, 1% of these pairings were detected, typically at 2.08 and seldom below 0.84. Also given: how often the same scFv was detected with the empty control strains, with their mean in brackets. The parent sequence was in this pool as ten entries: three were never detected, three once, and four in most replicates, with averages from 0.34 to 2.37. A sequence measured in both rounds can read differently, since the two assays cover different ranges. In the paper, a design with two or fewer of six values counts as a poor binder.

From the AlphaSeq antibody data of Li et al. 2023 (doi:10.1038/s41467-023-39022-2), copy in the FLAb collection.